Read-outs that look alike come from different tables or passages of the source.
Tests used:
γ-secretase [1] = biological target: T1, γ-secretase (Homo sapiens, UniProt P49768); assay: In vitro γ-secretase activity assay, Aβ42 production (ECL); conditions: read-out: in vitro IC50 against Aβ42
γ-secretase [2] = biological target: T1, γ-secretase; assay: In vitro γ-secretase assay detecting Notch cleavage (Notch1-TM substrate, SM320 antibody); conditions: read-out: in vitro IC50 against Notch
Experimental: (§1) FIG. 2. In vitro characterization of coumarin-dimer allosteric GSIs against various γ-secretase cleavage products. The potency of 7 unique coumarin-based γ-secretase inhibitors were evaluated for efficacy against γ-secretase-mediated production of Aβ40, Aβ42, Aβ38, and Notch. Additionally, the pan-GSI Compound E was also examined in these assays. The IC50 values were calculated from the dose response curves using a non-linear regression analysis in Prism software. IC50 values are presented with standard deviation (n=3 for each data point). […] Ruthenylated antibodies that detected the -40, -42, or -38 cleavage site were incorporated to detect proteolysis indicative of γ-secretase activity. […] Electrochemiluminescence was quantified on an Analyzer (BioVeris). […]
The in vitro γ-secretase assay detecting Notch cleavage was similar to the assays described above, however there were a few notable differences. […] Cleaved product was detected using the affinity polyclonal anti-NICD-1 antibody (SM320), which recognizes the cleaved product and not the substrate, as well as a ruthenylated secondary anti-rabbit antibody. The sample was then similarly incubated with magnetic streptavidin beads and quantified by measuring electrochemiluminescence.

[3] = tested on: γ-secretase from mouse brain membrane; assay: In vitro γ-secretase assay with mouse brain membrane
Source text: (§2) To discover selective GSIs, we screened large collections of small molecules (˜200,000 compounds) at the Sloan-Kettering Institute High Throughput Screening (HTS) Core Facility. Our HTS approach uncovered several novel classes of GSIs as well as currently established scaffolds. […] In our multiple in vitro assays, both compounds selectively abrogated Aβ42 production over Aβ40 (FIG. 2) by approximately 3.5-fold. […] Clearly, these compounds could represent a novel class of inhibitors that selectively target Aβ42 production. […] The predominant trend for this family of compounds was increased potency against Aβ42 over Aβ40, Aβ38, or Notch. […] Lastly, we also determined the inhibitory potency of CS-1 against cell membrane prepared from cells that stably express the PS1-M146L familial mutation (16). […]
(§3) Cell membranes and solubilized γ-secretase were prepared as described previously (36). […] Cleaved product was detected using ruthenylated antibodies that recognize specific APP cleavage sites (Aβ31-38*, G2-10*, or G2-11* antibody for Aβ38, Aβ40, or Aβ42 respectively). The Km and Vmax in the presence and absence of γ-secretase inhibitors were analyzed by non-linear curve fit using the software SigmaPlot 8.0 with the Michaelis-Menten equation (v=Vm [S]/(Km+[S]; v: initial rate; Vm: maximum velocity; Km: the Michaelis-Menten constant, S: substrate).

γ-secretase [4] = biological target: T1, γ-secretase; assay: In vitro γ-secretase activity assay, Aβ40 production (ECL); conditions: read-out: in vitro IC50 against Aβ40
Experimental: as §1
The assay protocol employed was a modified version of that described in Li et al., 2000, Proc. Nat'l Acad. Sci. USA 97:6183-643, incorporated herein by reference. […] The products were detected with various antibody combinations using electrochemiluminescence (ECL) technology as previously described in Li et al., 2000, Proc. Nat'l Acad. Sci. USA 97:6183-643; Lai et al., 2003, J. Biol. Chem. 278: 22475-22481; and Yin et al., 2007, J. Biol. Chem. 282:23639-23644. The amount of product was determined using synthetic peptide or recombinant standards. […]

γ-secretase [5] = biological target: T1, γ-secretase; assay: Inhibition kinetic analysis in the in vitro γ-secretase activity assay; conditions: APP-transmembrane domain substrate
Experimental: FIG. 4. Kinetic analysis of allosteric GSIs and evaluation of their effect on the γ-secretase active site architecture. (a) Kinetic analysis of CS1 was performed using our modified version of a previously reported in vitro γ-secretase activity assay. The inhibition kinetics were analyzed by using a non-linear curve fit with the Michaelis-Menten equation. Upper right inset: we replotted slopes against the inhibitor concentrations after performing double reciprocal conversion. (b) Schematic representation of the allosteric binding of the di-coumarin compounds to γ-secretase. This binding ultimately causes an alteration at the active site of γ-secretase. Black rectangle represents the coumarin-dimer compound. (c) The binding of L458 to the active site of γ-secretase and its interaction at various subpockets within the enzyme. […]
as §3

γ-secretase [6] = biological target: γ-secretase (Mus musculus, UniProt P49769); assay: AICD generation assay with N2A APPsw cell membrane; conditions: read-out: IC50 on AICD production, 37° C. for 2 hours
Experimental: FIG. 3. Cellular evaluation of the coumarin-dimer CS-1 and its selective inhibition of Aβ42. Compounds were incubated with the APPsw-N2A mouse neuroblastoma cells for 24 hours and media were analyzed by biotinylated 4G8 and ruthenylated antibodies specific for each respective cleavage product. (a) CS-1 preferentially abrogates Aβ42 production with no effect on Aβ40 or Aβ38. […] (c) The GSM indomethacin reduces Aβ42 production, potently increases Aβ38, and has little effect on Aβ40. (d) Immunoprecipitation mass spectrometry analysis of CS-1 effect on secreted β-amyloid species. Aβ peptides were immunoprecipitated using 4G8 antibody and isolated with Protein G+/A agarose beads. Samples were analyzed by MALDI-MS. Samples shown are representative and each data point was performed in triplicate. (e) Cell-based Notch cleavage assay. HEK-293 cells were transfected with ΔE Notch construct and then Compound E and CS-1 were evaluated for their ability to inhibit γ-secretase-mediated Notch intracellular domain production. […] Western blot is representative and was performed in triplicate. (f) Effect of CS-1 on AICD production. […] The generated AICD and APP-CTFs were detected by Western Blotting using APPc antibody. […]
We next determined the ability of CS-1 to suppress cellular γ-secretase activity for Notch1 cleavage. […]

[7] = tested on: N2a mouse neuroblastoma cells that stably express Swedish-mutated APP; assay: Cell-based assay of secreted Aβ42, Aβ40, Aβ38 in APPsw-N2A cells; conditions: read-out: EC50 for inhibition of Aβ42 production, 24 hrs at 37° C.
Experimental: FIG. 3. Cellular evaluation of the coumarin-dimer CS-1 and its selective inhibition of Aβ42. Compounds were incubated with the APPsw-N2A mouse neuroblastoma cells for 24 hours and media were analyzed by biotinylated 4G8 and ruthenylated antibodies specific for each respective cleavage product. (a) CS-1 preferentially abrogates Aβ42 production with no effect on Aβ40 or Aβ38. […] (c) The GSM indomethacin reduces Aβ42 production, potently increases Aβ38, and has little effect on Aβ40. (d) Immunoprecipitation mass spectrometry analysis of CS-1 effect on secreted β-amyloid species. Aβ peptides were immunoprecipitated using 4G8 antibody and isolated with Protein G+/A agarose beads. Samples were analyzed by MALDI-MS. Samples shown are representative and each data point was performed in triplicate. (e) Cell-based Notch cleavage assay. HEK-293 cells were transfected with ΔE Notch construct and then Compound E and CS-1 were evaluated for their ability to inhibit γ-secretase-mediated Notch intracellular domain production. […] The generated AICD and APP-CTFs were detected by Western Blotting using APPc antibody. […]
Cell membranes and solubilized γ-secretase were prepared as described previously (36). […] Cleaved product was detected using ruthenylated antibodies that recognize specific APP cleavage sites (Aβ31-38*, G2-10*, or G2-11* antibody for Aβ38, Aβ40, or Aβ42 respectively). […]

[8] = tested on: N2A mouse neuroblastoma cells overexpressing APP Swedish mutation; assay: IP-MS analysis of β-amyloid peptides from cell media; conditions: N2A APPsw conditioned media, MALDI-MS
Experimental: FIG. 3. Cellular evaluation of the coumarin-dimer CS-1 and its selective inhibition of Aβ42. Compounds were incubated with the APPsw-N2A mouse neuroblastoma cells for 24 hours and media were analyzed by biotinylated 4G8 and ruthenylated antibodies specific for each respective cleavage product. (a) CS-1 preferentially abrogates Aβ42 production with no effect on Aβ40 or Aβ38. […] (c) The GSM indomethacin reduces Aβ42 production, potently increases Aβ38, and has little effect on Aβ40. (d) Immunoprecipitation mass spectrometry analysis of CS-1 effect on secreted β-amyloid species. Aβ peptides were immunoprecipitated using 4G8 antibody and isolated with Protein G+/A agarose beads. Samples were analyzed by MALDI-MS. Samples shown are representative and each data point was performed in triplicate. (e) Cell-based Notch cleavage assay. HEK-293 cells were transfected with ΔE Notch construct and then Compound E and CS-1 were evaluated for their ability to inhibit γ-secretase-mediated Notch intracellular domain production. […] Western blot is representative and was performed in triplicate. (f) Effect of CS-1 on AICD production. N2A APPsw cell membrane was prepared and incubated with the indicated concentrations of CS-1 at 37° C. for 2 hours. The generated AICD and APP-CTFs were detected by Western Blotting using APPc antibody. Western blot is representative and was performed in triplicate.
We next set out to determine if the selective inhibition of Aβ42 was maintained in a cell-based system for APP processing. First, we compared our lead compound CS-1 (FIG. 3a) to Compound E (FIG. 3b) and the GSM compound indomethacin (FIG. 3c). […]
Aβ peptide profiles were analyzed by immunoprecipitation/mass spectrometry (37). […] The molecular masses of immunoprecipitated Aβ species were measured using a Voyager-DE STR matrix assisted laser desorption ionization time-of-flight mass spectrometer (Applied Biosystems). […] Peaks corresponding to Aβ peptides were identified using the measured molecular masses searching against human Aβ peptide.

[9] = biological target: γ-secretase, cell membrane from cells that stably express the PS1-M146L familial mutation (Homo sapiens, UniProt P49768, M146L); assay: In vitro γ-secretase assay with membrane of cells expressing PS1-M146L
Source text: as §2, §3

cell viability = assay: Cytotoxicity study using Alamar Blue; conditions: up to 30 μM
Experimental: We next set out to determine if the selective inhibition of Aβ42 was maintained in a cell-based system for APP processing. First, we compared our lead compound CS-1 (FIG. 3a) to Compound E (FIG. 3b) and the GSM compound indomethacin (FIG. 3c). N2a mouse neuroblastoma cells that stably express Swedish-mutated APP substrate were treated with the indicated compounds for 24 hrs at 37° C. Following 24 hr incubation period, the medium was collected from the cells and assayed for secreted Aβ42, Aβ40, and Aβ38. CS-1 inhibited Aβ42 production with an EC50 of approximately 3 μM in our cell-based assay, yet had virtually no effect on Aβ38 or Aβ40 production up to 30 μM (FIG. 3a). Furthermore, cytotoxicity studies using Alamar Blue indicated CS-1 had little to no effect on cell viability up to 30 μM (data not shown). […] The result for indomethacin mirrored those findings by Kukar et al. whereby a different cell-based system was utilized (17), further validating our assay system for analysis of these Aβ species. […] This may reflect subtle variations between the cellular and in vitro conformations of γ-secretase. Nevertheless, the cell-based studies confirmed that CS-1 maintains a preference for inhibition of the γ-secretase mediated production of Aβ42 over Aβ40 or Aβ38, which is distinct to previously reported GSMs (17) and inhibitors (14-15, 18).

γ-secretase [10] = biological target: T1, γ-secretase; assay: In vitro γ-secretase activity assay, Aβ38 production (ECL); conditions: read-out: in vitro IC50 against Aβ38

## O=c1oc2ccccc2c(O)c1C(c1cc(F)c(F)c(F)c1)c1c(O)c2ccccc2oc1=O [Compound 37]
γ-secretase [1]
  IC50: 70 nM
γ-secretase [2]
  IC50: 1770 nM
[3]; read-out: IC50 Aβ40
  IC50: 380 nM
[3]; read-out: IC50 Aβ42
  IC50: 112 nM
γ-secretase [4]
  IC50: 310 nM
γ-secretase [5]
  mode of inhibition against APP-TM substrate: non-competitive inhibition
γ-secretase [6]
  IC50: > 10000 nM
[7]
  EC50: 3000 nM
[8]
  effect on secreted Aβ38 by IP-MS: largely intact
  effect on secreted Aβ40 by IP-MS: largely intact
  effect on secreted Aβ42 by IP-MS: inhibit
[9]; read-out: IC50 Aβ40
  IC50: 167 nM
[9]; read-out: IC50 Aβ42
  IC50: 206 nM
Cell viability
  effect on cell viability: little to no effect
γ-secretase [10]
  IC50: 710 nM

Source: patent US20150133493A1, “COUMARIN-BASED COMPOUNDS FOR THE TREATMENT OF ALZHEIMER'S DISEASE AND CANCER” (Sloan-Kettering Institute for Cancer Research, priority 2008, published 2015)
